Assays:
[1] = target: AF647-Osh6 (S. cerevisiae) (UniProt Q02201); assay: MST
Osh6 = target: T1, Osh6 (S. cerevisiae, UniProt Q02201 1-448); assay: pull-down; GST constructs (2.5 μM) immobilised on Glutathione Sepharose 4B beads; Osh6, its mutants, Osh4, ORD^Osh3 or ORD^ORP8 added at 2.5 μM; 50 mM tris pH 7.4, 120 mM NaCl, 1 mM MgCl2, 1% TX-100, 1 mM DTT, 10% glycerol; 25°C, 1 hour; bound fraction by SDS-PAGE; details: both partners purified
T1 construct: also called Osh6 WT
T1 sequence (looked up): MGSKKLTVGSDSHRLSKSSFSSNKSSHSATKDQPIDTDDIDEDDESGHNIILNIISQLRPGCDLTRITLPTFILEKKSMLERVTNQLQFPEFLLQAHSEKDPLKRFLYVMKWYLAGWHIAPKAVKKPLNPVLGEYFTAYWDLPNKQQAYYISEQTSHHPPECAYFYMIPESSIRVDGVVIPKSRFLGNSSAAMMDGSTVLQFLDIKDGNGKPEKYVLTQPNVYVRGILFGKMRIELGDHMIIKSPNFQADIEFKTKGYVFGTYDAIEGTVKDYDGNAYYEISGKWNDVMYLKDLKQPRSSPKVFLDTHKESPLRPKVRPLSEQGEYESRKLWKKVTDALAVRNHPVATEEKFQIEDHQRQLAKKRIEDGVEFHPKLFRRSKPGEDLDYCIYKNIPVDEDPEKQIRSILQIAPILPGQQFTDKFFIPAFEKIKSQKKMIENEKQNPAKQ

Work on Ist2[729–768] peptide yielded a Kd [1] of 4 µM.

B1: GST-Ist2[590–768] (domain or fragment, S. cerevisiae, UniProt P38250 590-768, looked up)
chain: SSHDDVANGIVPKHVVNVQNPPKQEVFEKIPSPEFNSNNEKELVQRKGSANEKLHQELGEKQPASSANGYEAHAATHANNDPSSLSSASSPSLSSSSSSSKTGVVKAVDNDTAGSAGKKPLATESTEKRNSLVKVPTVGSYGVAGATLPETIPTSKNYYLRFDEDGKSIRDAKSSAESS
B1: binds (Osh6).
